Reference: PubChem BioAssay AID504891 (National Center for Advancing Translational Sciences (NCATS), 2011)
This is a selection; strong and weak results do not stand in their true shares. Inconclusive results are not listed. Calls of active or inactive are those of the source. Calls come from the whole dose curve; as a rule, active = well fitted inhibition curve with a large enough effect in the polarisation, with a control signal flat (not every such curve was filed as active); inconclusive = small, poorly fitted or top-dose-only effect, or effect the other way, or a change in a side signal; inactive = no such curve, though single readings can be large or run the other way; the % refers to the polarisation.

Chains of the proteins cited; added tags and fusions are not shown.
UniProt Q13526, whole entry: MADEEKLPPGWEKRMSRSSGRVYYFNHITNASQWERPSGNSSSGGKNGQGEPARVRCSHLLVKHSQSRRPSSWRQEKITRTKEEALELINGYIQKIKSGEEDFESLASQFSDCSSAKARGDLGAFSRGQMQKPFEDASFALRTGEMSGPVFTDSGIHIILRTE

target: Peptidyl-prolyl cis-trans isomerase NIMA-interacting 1 (Homo sapiens) (UniProt Q13526); test: qHTS Assay to Find Inhibitors of Pin1; conditions: Pin1 FP peptide displacement, HiFluor488, 10 min; at 115 µM (top of the series)
% is set by controls: 0 for no effect and ±100 for the full control effect.

| Structure (SMILES) | activity, negative = inhibition |
| --- | --- |
| CC(=O)c1ccc(N2CC2c2ccncc2)cc1 (stereo unspecified) | inactive: -1.6% |
